Patent EP4088745A1, “COMPOUND FOR THE DIAGNOSIS OF CANCER” (Eberhard Karls Universität Tübingen Medizinische Fakultät, priority 2021, dated 2022)

Target: T1, tankyrase 2 (Homo sapiens, UniProt Q9H2K2)
T1 sequence (Q9H2K2 1-1166): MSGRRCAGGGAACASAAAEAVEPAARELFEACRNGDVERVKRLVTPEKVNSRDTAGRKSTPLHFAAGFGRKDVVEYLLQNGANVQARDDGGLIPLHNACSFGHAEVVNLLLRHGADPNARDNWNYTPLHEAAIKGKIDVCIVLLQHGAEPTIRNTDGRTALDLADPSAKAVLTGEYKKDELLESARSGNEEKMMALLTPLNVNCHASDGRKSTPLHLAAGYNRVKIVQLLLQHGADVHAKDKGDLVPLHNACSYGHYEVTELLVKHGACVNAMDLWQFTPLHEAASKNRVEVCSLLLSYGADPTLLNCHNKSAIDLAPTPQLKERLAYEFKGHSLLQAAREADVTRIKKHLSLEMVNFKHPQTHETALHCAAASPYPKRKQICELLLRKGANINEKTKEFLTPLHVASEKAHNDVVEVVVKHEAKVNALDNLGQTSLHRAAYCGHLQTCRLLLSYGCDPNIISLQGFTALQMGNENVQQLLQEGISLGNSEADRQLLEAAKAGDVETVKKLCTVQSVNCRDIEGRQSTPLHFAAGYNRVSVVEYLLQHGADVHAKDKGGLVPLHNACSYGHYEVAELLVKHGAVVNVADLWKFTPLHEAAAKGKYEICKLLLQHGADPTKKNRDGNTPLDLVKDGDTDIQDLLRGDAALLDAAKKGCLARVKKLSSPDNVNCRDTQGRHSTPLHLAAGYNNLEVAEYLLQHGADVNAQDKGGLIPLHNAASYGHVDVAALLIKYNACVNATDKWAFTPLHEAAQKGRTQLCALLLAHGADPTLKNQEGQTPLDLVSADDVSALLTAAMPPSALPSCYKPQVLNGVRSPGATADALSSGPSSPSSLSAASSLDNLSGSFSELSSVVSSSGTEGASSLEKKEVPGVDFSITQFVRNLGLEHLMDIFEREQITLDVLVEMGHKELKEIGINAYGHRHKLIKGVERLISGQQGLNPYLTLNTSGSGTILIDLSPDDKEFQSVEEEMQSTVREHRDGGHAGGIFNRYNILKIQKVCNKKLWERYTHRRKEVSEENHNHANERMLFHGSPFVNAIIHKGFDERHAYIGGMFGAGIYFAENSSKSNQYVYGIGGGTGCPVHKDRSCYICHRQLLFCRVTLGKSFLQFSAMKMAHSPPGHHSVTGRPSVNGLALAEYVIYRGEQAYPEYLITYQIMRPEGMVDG
Experiment: Affinity for tankyrase 2 (Fig. 13)
Assay type: binding

Structure (SMILES): Cn1ncnc1[C@H]1c2n[nH]c(=O)c3cc(F)cc(c23)N[C@@H]1c1ccc(F)cc1 [talazoparib, (8S,9R)-5-Fluoro-8-(4-fluorophenyl)-2,7,8,9-tetrahydro-9-(1-methyl-1H-1,2,4-triazol-5-yl)-3H-pyrido[4,3,2-de]phthalazin-3-one]
- affinity for tankyrase 2 (IC50): low nanomolar range
